As a reminder, the pA2 is a measure of antagonist potency on a negative log scale. A lower pA2 goes with a weaker antagonist.

Some results are limits rather than exact numbers.

This experiment addresses M3 muscarinic receptors (guinea pig ileum) (Cavia porcellus, UniProt H0W1Z3). Kind of experiment: Guinea pig ileum contraction assay, pA2. The conditions noted are these: Table 6; carbachol as agonist, Schild plot; 4-6 ileum strips, mean ± SD.
Turning to `C[N@@+]1(CC(=O)[O-])CC[C@H](OC(=O)[C@@](O)(c2ccccc2)C2CCCC2)C1`, the pA2 is less than 4. Regarding `C[N@+]1(CC(=O)[O-])CC[C@@H](OC(=O)[C@@](O)(c2ccccc2)C2CCCC2)C1`, the pA2 is reported as 5.69 ± 0.13. In turn, `C[N@@+]1(CC(=O)[O-])CC[C@H](OC(=O)[C@](O)(c2ccccc2)C2CCCC2)C1` came in with a pA2 of 7.33 ± 0.28.

These data come from patent US8568699B2, “Soft anticholinergic zwitterions” (priority 2005, dated 2013).
